This passage reports GI50 and TGI results from PubChem BioAssay (NCI).

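Interpolation was linear, between the two tested concentrations surrounding the appropriate level; five concentrations were tested over 48 hours in 96-well plates. Here, GI50 denotes the concentration required for 50% inhibition of growth. Definition used: TGI = concentration required for complete inhibition of growth.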

The assay has as its system MDA-MB-468 breast. As to the kind of experiment: NCI-60 cell line screen, 48 h.

Turning to `Cc1c([N+](=O)[O-])cc([N+](=O)[O-])c(Br)c1[N+](=O)[O-]`, the GI50 was 1290 nM and the TGI is 2710 nM.
